These are literature values, as cited in US20070292421A1, “Method for treating preeclampsia” (priority 2005, published 2007).

The conditions of the data set: upper value (14.5) after a 2 mg/kg dose.

Take “Pexelizumab: recombinant single-chain antibody fragment that binds human C5 and blocks generation of C5a (Alexion Pharmaceuticals)”: the elimination half life is 7.0 to 14.5 h.
